# scFv variants of Ab-14 (light chain) against a SARS-CoV-2 spike peptide

All variants were tested on one target, the spike HR2 peptide PDVDLGDISGINAS (SARS-CoV-2).

Each scFv is VH, the linker GGGGSGGGGSGGGGS, VL, as in the parent Ab-14, and differs from it in the CDRs of the light chain only.
VH: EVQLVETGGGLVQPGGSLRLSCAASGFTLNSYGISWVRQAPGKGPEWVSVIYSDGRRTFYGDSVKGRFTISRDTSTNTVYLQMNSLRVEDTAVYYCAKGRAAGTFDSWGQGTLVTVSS
VL: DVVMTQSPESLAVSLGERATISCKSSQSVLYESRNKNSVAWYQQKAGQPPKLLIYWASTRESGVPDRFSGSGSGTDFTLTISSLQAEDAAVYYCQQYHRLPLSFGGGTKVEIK

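The starting antibody came from a phage panning campaign against this peptide. This is the validation round: designs drawn from the data on random variants, tested in the same kind of assay. Group labels follow the data file (Ctrl: baseline library sampled from a position-specific scoring matrix, with some repeated check sequences; En: ensemble of fine-tuned language models; GP: Gaussian process model; HC: hill climbing; Gen: genetic algorithm; Gibbs: Gibbs sampling; a sequence that several methods proposed may carry one label only). The scFvs were displayed on barcoded MATa yeast, the peptide on MATalpha yeast. Binding brings cells together so that they mate, and sequencing counts the barcode pairs among the diploids. Each replicate has its own calibration line, from reference interactions of the BCL2 family. The assay was run in six technical replicates.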

The parent's light chain CDRs are KSSQSVLYESRNKNSVA, WASTRES, QQYHRLPLS; each variant's own CDRs replace them letter for letter.
This list holds designs with more than six substitutions.
Kd is apparent (estimated from mating counts) and averaged on the log scale over replicates with a signal. Smaller is tighter.
"no signal" means that the variant was in the library but no mating with the target was seen in any replicate; the authors take this as a sign of poor binding, and no number exists.
In the paper, a design with two or fewer of six values counts as a poor binder.
Of ten entries with the parent sequence, four were seen in most replicates (averages 2.2 nM to 240 nM), three in one and three in none, so single entries are noisy.
The range of this assay differs from that of the first round, and the authors advise against merging the two.
Background: pairings of all light chain designs with three empty control strains gave a value in 4% of cases (median 430 nM, 5th percentile 38 nM). Values in that range, when seen in few replicates, are hard to tell from nonspecific mating.

CDR-L1	CDR-L2	CDR-L3	group	Kd (apparent)	replicates with signal
KIGMTLNQLMHHKNNVA	DLVTREQ	QQYHRLPLS	En_Gen	1.5 nM	6/6
MLSQMWAVGSKVSNSVA	QASMRFN	QQYDRLPLI	En_Gen	13 nM	6/6
KLYERGEESSKVDRSIA	EMSTRQE	QQYQRLPLS	En_Gibbs	28 nM	6/6
HLSEVLHMLGVKKNSIA	DLVLRAN	QQYHRLPLM	En_Gen	6.3 nM	6/6
KISMLINQTFQMANNVA	EMVTRVK	QQYNRLPLS	En_Gen	3.0 nM	6/6
TIGQMFNGVSRNRNSVA	QASTRES	QSYDRLPLS	En_HC	59 nM	6/6
KLSMVTGHLSMAKNNVA	EMVTRCK	QQYNRLPLS	En_Gen	2.1 nM	6/6
RISAHVYDETNTQENVA	NEHIRAN	QQYSRLPLS	En_Gibbs	2.8 nM	6/6
KFSQSEDYESRNKWSVA	NASTRMQ	QQYHRLPLS	GP_Gibbs	870 pM	6/6
KISMMYRYESQNKNSIA	EMSRREN	QQYHRLPLS	En_HC	1.2 nM	6/6
KISMLQRYASQNKNSIA	EMSRREN	QQYHRLPLS	En_HC	1.0 nM	6/6
MISQLMNLGQFAINSVA	QASIRNA	QQYDRLPLI	En_Gen	180 nM	6/6
KLEMSVQMESRNKNSVA	SASTRER	QQYHRLPLS	GP_Gibbs	1.1 nM	6/6
KLSVSWLFESIMKNSVA	ERSTRED	QDYNRLPLS	En_HC	54 nM	6/6
KLQQSELPESRNKNSVA	EASLRLL	QQYHRLPLS	GP_Gibbs	590 pM	6/6
TIGQMFNGESRNRNSVA	QASTRES	QSYDRLPLI	En_HC	3.1 nM	6/6
KSAYSCLLESRNCNSVA	SASTREV	QQYHRLPLS	GP_Gibbs	3.5 nM	6/6
HMSMLTLQGMRHRNSVA	QMTTRVN	QQYDRLPLM	En_Gen	30 nM	6/6
NLRMKELGMSYNANNVA	DSENRIK	QQYSRLPLM	En_Gibbs	1.1 nM	6/6
MFALYQDSMGDAKNSIA	DRNTKAH	QQYSRLPLV	En_Gibbs	3.8 nM	6/6
HISQMWFLESKNKNNVA	EESTRGD	QSYFRLPLS	En_HC	640 pM	6/6
KISGYLNKEQKNKNSVA	EMVNRES	QQYDRLPLS	En_HC	2.8 nM	6/6
KISFQYRYEQLSKNSIA	EVQTRLK	QQYDRLPLS	En_HC	28 nM	6/6
HISEMIFAQMKMRNSVA	ENNTREA	QQYDRLPLS	En_HC	750 nM	1/6
MLTRFNLENQGRSNNIA	DTNNVQE	QQYSRLPFA	En_Gibbs	2.8 nM	6/6
ILSYSELYEDRMKNSVA	NASQREQ	QQYHRLPLS	GP_Gibbs	2.8 nM	6/6
SLMQVGGYEMNAHNSIA	DLRTRES	QQYHRLPLS	En_HC	3.5 nM	6/6
KNSQSVVYEDRNNNSVA	DASTRES	QQYSRLPLK	Ctrl	2.1 nM	6/6
KLEPSELEESRNKNSVA	SASHRES	QDYHRLPLS	GP_Gibbs	1.1 nM	6/6
KVSPEMEYESRNKASVA	HASTRES	QQYHRLPLS	GP_Gibbs	890 pM	6/6
TISSVMNHMTRIDNNVA	NQDMREN	QQYDRLPLS	En_Gen	45 nM	6/6
KISMLLNMTFQQSNNVA	EMATREK	QQYNRLPLS	En_Gen	5.9 nM	6/6
HVEHDWLLSNATMNAVA	NGATLAD	QQYGRLPLA	En_Gibbs	12 nM	6/6
FLAYALDQDGLAKNNIA	QTNLLEN	QQYERLPLA	En_Gibbs	55 nM	5/6
TLSDVMHMESRNVNNVA	DLVKRES	QQYHRLPLS	En_HC	2.2 nM	6/6
TISQSTQMESHNKNSVA	DLNVRGS	QQYDRLPLS	En_HC	2.9 nM	6/6
KLSQSVEGEEWNKNSVA	HASVREV	QQYHRLPLS	GP_Gibbs	3.5 nM	6/6
TLTQSVGMQSHNKNSVA	DLSTRGS	QQYHRLPLS	En_HC	1.5 nM	6/6
KLQQSWLYLSRNHNAVA	HASQRCS	QDYHRLPLS	GP_Gibbs	9.1 nM	6/6
KLYQLTAMTSRMKNNVA	DLNERER	QQYFRLPLS	En_HC	3.1 nM	6/6
KITATMRFEQKNTNNIA	EVSTRSK	QQYVRLPLA	En_Gen	4.7 nM	6/6
KIELDLTRYNAGGANIA	HETMRAQ	QQYSHLPLI	En_Gibbs	4.9 nM	6/6
KLSQVTNSEHRNKNSIA	EMVTREK	QQYDRLPLF	En_HC	11 nM	6/6
HFAVNLTSLDSSKQNVA	NASTVMV	QYYNRLPLS	En_Gibbs	140 nM	6/6
KLLDWYYGTTAMDSNIA	DQALEMD	QQYDRLPLT	En_Gibbs	no signal	0/6
MVSQLMLWGHLAKNSIA	EAEHRAN	QQYDRLPLF	En_Gen	17 nM	6/6
MIYGAQRELGLAANSIA	DNVTRYN	QQYERLPLS	En_Gen	550 nM	6/6
HMMMYEDMQQNIQCGVA	DATTRNT	QQYQRLPLS	En_Gibbs	18 nM	6/6
KLSQSDCYEDRNLNNVA	HASTRES	QQYHRLPLM	GP_Gibbs	930 pM	6/6
MVSMMPNEGTRYWEAVA	DHSQRNT	QQYDQLPLS	En_Gibbs	95 nM	3/6
AIKQLWSTMGAARHNVA	EAKTRAI	QDYFRLPLI	En_Gibbs	18 nM	2/6
RIQMTDLEGRMAWNNIA	DNEESYR	QQYVRLPLY	En_Gibbs	no signal	0/6
KVSEFERGLMSRQDSIA	DNVTRNN	QQYDRLPLS	En_Gen	410 nM	1/6
LVSQQELYEDRNKNSVA	HASQRLL	QQYHRLPLS	GP_Gibbs	800 pM	6/6
TISQMLLMQTSHKNSVA	GEETRYA	QQYHRLPLS	En_HC	3.0 nM	6/6
TIGAQLMYGMRNRSNVA	EVSQRLN	QQYDRLPLD	En_Gen	27 nM	6/6
KLGGVTSYEMQNKNSVA	QMTTRES	QQYHRLPLS	En_HC	180 pM	6/6
KCSISVEQLSRQKNSVA	HASTRES	QQYHRLPLS	GP_Gibbs	4.3 nM	6/6
KLEMSMPYESRNKNSVA	HASVRES	QQYHRLPLS	GP_Gibbs	880 pM	6/6
KLSQSYCMGDRNKNSVA	QASTREQ	QQYHRLPLS	GP_Gibbs	1.2 nM	6/6
KISMTYRYESTASNSIA	EMTTRAE	QSYHRLPLS	En_HC	86 nM	3/6
KFNQSKEGVTYEGESIA	GSQTIQE	QQYDRLPLA	En_Gibbs	8.9 nM	6/6
HITSNMFGTIGVTSNVA	ETNTLMV	QQYSKLPLM	En_Gibbs	1.8 nM	6/6
TIGGTLMYGYRNRSNVA	EVSERLN	QQYDRLPLF	En_Gen	1.9 µM	4/6
KLSMVTNHQLMSKDNVA	EMVTREN	QQYDRLPLS	En_Gen	9.8 nM	6/6
KLFQSWLYEQRQPNSVA	NASQRLL	QQYHRLPLS	GP_Gibbs	3.1 nM	6/6
KVAQSMLGEERNKNSVA	SASTREN	QQYHRLPLS	GP_Gibbs	390 pM	6/6

Source: Li et al. 2023 (doi:10.1038/s41467-023-39022-2), MIT Lincoln Laboratory and A-Alpha Bio; data file from the FLAb repository.